Assay [1] concerns the target T1, influenza A polymerase (Influenza A virus, UniProt P15659). Nature of the assay: cell-based. Also on record: species or system influenza A/WSN/33 H1N1.
Assay [2] addresses T1, influenza A polymerase. Nature of the assay: cell-based. Further details: species or system influenza A/WSN/33 H1N1. The source holds these as a separate data set.

Read-outs that look alike come from different tables or passages of the source.

As usually defined, the EC50 is the concentration that produces a half-maximal response. Higher therefore signals lower potency in that assay.

With `COC(=O)OCOc1c2n(ccc1=O)N([C@@H]1c3ccccc3SCc3c1ccc(F)c3F)[C@@H]1COCCN1C2=O` [BMX, baloxavir marboxil, reference compound], the EC50 in assay [1] was found to be 4 ± 1 nM; in assay [2] it was 2 ± 0.6 nM.

For the origin of these results see publication PMC12154555, “Beyond natural flavonoids: exploring bioisosterism in design and synthesis of influenza endonuclease inhibitors” (RSC Medicinal Chemistry, 2025).
